The test addresses ERα (Homo sapiens (Human), UniProt P03372). Put plainly: Degradation effect of compound on ERα (ERα DuoSet IC ELISA in MCF-7 cells). Format: cell-based. The conditions noted are these: read-out: IC50 value of ERα degradation by compound. On the procedure:
In this test example, ERα DuoSet IC ELISA Kit (R&D, DYC5715) was used to detect the degradation effect of the compound on ERα. On the first day of the experiment, human breast cancer cells MCF-7 (the source was as above) were inoculated into a 24-well plate. The culture medium was an MEM culture medium containing 10% of activated-carbon-treated FBS (Tocyto, UT61204), 1% of pyruvic acid and 1% of nonessential amino acid. The inoculation density was 150,000 cells/well. The cells were cultured at 37° C., 5% CO2 for 24 h.
On the second day of the experiment, the compound to be tested was diluted in gradient and added to a 24-well plate containing cells. The cells were cultured for 24 h at 37° C., 5% CO2. ERα capture antibody was diluted to 1 μg/ml with PBS (Corning, 21-040-CVR) and added to a 96-well plate at 100 μL/well, and the plate was […] coated overnight at room temperature.
On the third day of the experiment, the coated 96-well plate was washed three times with PBS, 300 μL of a blocking solution (R&D, DY995) was added to each well, and the plate was blocked at room temperature for 1 h. The 24-well plate was washed once with PBS, and the residual liquid was sucked off. […] After 15 minutes of development, the reaction was terminated with a stop solution (R&D, DY994), and the light absorption at 450 nm was read.
Background: ELISA stands for enzyme-linked immunosorbent assay.

Sequences of proteins named here, by UniProt entry; tags and fusion partners are left off.
UniProt P03372, whole entry: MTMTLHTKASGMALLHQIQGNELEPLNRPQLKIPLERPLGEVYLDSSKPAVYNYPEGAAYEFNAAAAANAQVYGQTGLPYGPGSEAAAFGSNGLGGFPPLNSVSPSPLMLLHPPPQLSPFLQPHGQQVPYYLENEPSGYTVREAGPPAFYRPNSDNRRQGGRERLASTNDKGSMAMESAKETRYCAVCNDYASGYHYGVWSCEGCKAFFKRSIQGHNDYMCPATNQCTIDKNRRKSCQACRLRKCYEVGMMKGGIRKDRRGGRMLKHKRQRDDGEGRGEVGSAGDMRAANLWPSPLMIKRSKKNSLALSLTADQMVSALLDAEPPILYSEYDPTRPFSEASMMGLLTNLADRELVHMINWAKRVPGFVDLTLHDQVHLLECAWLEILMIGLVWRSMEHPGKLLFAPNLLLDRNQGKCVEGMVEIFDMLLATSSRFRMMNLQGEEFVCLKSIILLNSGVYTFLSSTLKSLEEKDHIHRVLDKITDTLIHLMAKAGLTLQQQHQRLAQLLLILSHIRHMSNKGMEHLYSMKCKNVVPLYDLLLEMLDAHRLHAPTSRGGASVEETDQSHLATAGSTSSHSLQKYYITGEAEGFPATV

Our source for the DC50 values is patent publication US20240217988A1, “ESTROGEN RECEPTOR ANTAGONIST” (Shenzhen Forward Pharmaceuticals Co., Limited, priority 2021, published 2024).

On to `C[C@@H]1Cc2c([nH]c3ccccc23)[C@@H](c2c(F)cc(/C=C/C(=O)O)cc2F)N1CC(C)(C)F` [AZD9496, reference compound], for which the DC50 is 1.38 nM.
